For one assay, the target named is GST-Rab11 S25N (human) (UniProt P62491). In words: pull-down; GST-Rab11 proteins immobilized on glutathione-Sepharose beads; lysates of cells expressing GFP-SPIN90 in buffer B (25 mM HEPES, 100 mM NaCl, 5 mM MgCl2, 1% NP-40, 10% glycerol); 2 h at 4 °C; immunoblot with anti-GFP. (Immunoblotting shows a protein as a band on a membrane.)
A further assay deals with GST-Rab11 Q70L (human) (UniProt P62491). The assay is described as above.
Assay [1] addresses Rab11 (human (endogenous in HeLa)) (UniProt P62491). Kind of assay: proximity ligation; Duolink PLA in fixed, permeabilized HeLa cells (shControl; shSPIN90 knock-down as control); mouse anti-SPIN90 and rabbit anti-Rab11; puncta counted in each cell.

On to “GFP-SPIN90 full-length (FL) (from UniProt Q9NZQ3 1-722) (natural protein)”, for which the relative band intensity (normalized to GST-Rab11 WT with SPIN90 FL) with GST-Rab11 S25N (human) came out at 2.11; with GST-Rab11 Q70L (human) it was 0.93. For the substance “SH3 protein interacting with Nck, 90 kDa (SPIN90) (from UniProt Q9NZQ3 1-722) (natural protein)”, the PLA puncta number per cell (puncta per cell) in assay [1] worked out at 20.2.

Source of the values: PMC9504172.
